Measured values: paper PMC9501438, “Unveiling the Essential Role of Arkadia’s Non-RING Elements in the Ubiquitination Process” (International Journal of Molecular Sciences, 2022)

Target: T1, ubiquitin (UniProt P0CG48 1-76)
T1 construct: ubiquitin, the free monomer (cut product of a polyubiquitin precursor); 15N-labelled in the NMR titrations; also called free ubiquitin; source: untagged, purified by heating at 85 °C, centrifugation and size exclusion chromatography
Experiment: NMR titration; 1H-15N HSQC of free 15N-labelled ubiquitin after addition of Arkadia 119 aa (isoform 1) or Arkadia isoform 2
Conditions: both partners purified

B1: Arkadia isoform 2 (876–986 aa) (domain or fragment, human, UniProt Q6ZNA4-2 876-986, looked up)
chain: FRGNFEELIHLEERLGNVNRGASQGTIERCTYPHKYKKRKLHCKQDGEEGTEEDTEEKCTICLSILEEGEDVRRLPCMHLFHQVCVDQWLITNKKCPICRVDIEAQLPSES
notes: Arkadia (RNF111) isoform 2, which lacks the segment Val914-Q921 of isoform 1; numbers count on: isoform 2
  binding result: binds
